As a reminder, the IC50 is the point on the concentration scale where inhibition reaches its midpoint. Read a low IC50 as greater potency.

Chains of the proteins cited; added tags and fusions are not shown. Lines headed by an entry give the natural chain unless they say otherwise; changes in a name come on top.
UniProt P97266, whole entry, looked up: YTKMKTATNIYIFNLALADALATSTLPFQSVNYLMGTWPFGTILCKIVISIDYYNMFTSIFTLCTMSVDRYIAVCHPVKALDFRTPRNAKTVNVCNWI
UniProt P41144: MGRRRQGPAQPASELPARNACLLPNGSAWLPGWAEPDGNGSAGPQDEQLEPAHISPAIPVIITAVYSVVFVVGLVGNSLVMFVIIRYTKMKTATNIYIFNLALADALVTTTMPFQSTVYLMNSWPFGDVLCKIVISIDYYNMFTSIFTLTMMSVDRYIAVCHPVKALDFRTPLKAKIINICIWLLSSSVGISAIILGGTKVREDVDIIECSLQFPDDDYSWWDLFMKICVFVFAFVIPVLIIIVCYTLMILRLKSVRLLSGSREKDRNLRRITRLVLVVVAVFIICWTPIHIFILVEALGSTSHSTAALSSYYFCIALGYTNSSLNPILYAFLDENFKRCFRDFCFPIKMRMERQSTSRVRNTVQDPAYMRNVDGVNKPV

A value given as a limit tells only on which side of the number the result lay.

This passage reports IC50 results from ChEMBL document CHEMBL1127447, “Isothiocyanate-substituted kappa-selective opioid receptor ligands derived from N-methyl-N-[(1S)-1-phenyl-2-(1-pyrrolidinyl)ethyl] phenylacetamide” (1994).

One assay has as its target Mu-type opioid receptor (Cavia porcellus, UniProt P97266). As to the kind of experiment: Tested for inhibitory concentration against [3H]DAMGO binding at sites of mu-opioid receptor in guinea pig brain membrane.
The target in assay [1] is T1, Kappa-type opioid receptor (Cavia porcellus, UniProt P41144). In words: Tested for inhibitory concentration against [3H]U-69593 binding at sites of kappa-opioid receptor in guinea pig brain membrane.
The nature of assay [2]: Tested for inhibitory concentration against [3H]bremazocine binding to total sites of opioid receptor in guinea pig brain membrane.
Assay [3] deals with T1, Kappa-type opioid receptor. In words: Tested for inhibitory concentration against [3H]U-69593 binding at kappa-opioid receptor sites in guinea pig brain membrane.
Assay [4] has as its target T1, Kappa-type opioid receptor. In words: Tested for inhibitory concentration against [3H]U-69593 binding at sites kappa-opioid receptor in guinea pig brain membrane.

Consider `CN(C(=O)Cc1cccc(N=C=S)c1)[C@H](CN1CCCC1)c1ccccc1`, for which the IC50 on Mu-type opioid receptor is 5100 nM; in assay [1] it was 3.3 nM; in assay [2], 54 nM.

For `CN(C(=O)Cc1ccccc1)[C@H]1CC[C@@]2(CCCO2)C[C@@H]1N1CCCC1`, the IC50 is 1760 nM on Mu-type opioid receptor, 2.1 nM in assay [1] and 140 nM in assay [2].

Turning to `CN(C(=O)Cc1ccccc1N=C=S)[C@H](CN1CCCC1)c1ccccc1` [listing 1 of 2 here], the IC50 in assay [2] amounted to 58 nM.

In the case of `CN(C(=O)Cc1ccccc1N=C=S)[C@H](CN1CCCC1)c1ccccc1` [listing 2 of 2 here], the values for the half-inhibitory concentration (IC50) (at Mu-type opioid receptor; in assay [3]) were over 1000 nM and 2.3 nM, respectively.

As to `CN(C(=O)Cc1ccc(Cl)c(Cl)c1)[C@H](CN1CCCC1)c1ccccc1`, the IC50 is 150 nM on Mu-type opioid receptor, 1.5 nM in assay [1] and 11 nM in assay [2].

In assay [2], `CN(C(=O)Cc1cc(Cl)c(Cl)cc1N=C=S)[C@H](CN1CCCC1)c1ccccc1` [listing 1 of 2 here] registered an IC50 of 54 nM.

As to `CN(C(=O)Cc1ccc(N=C=S)cc1)[C@H](CN1CCCC1)c1ccccc1` [listing 1 of 2 here], the IC50 was determined as 730 nM on Mu-type opioid receptor and 14 nM in assay [4].

As for `CN(C(=O)Cc1ccc(Cl)c(Cl)c1)[C@H](CN1CCCC1)c1ccc(N=C=S)cc1`, the 50% inhibitory concentration (IC50) was over 1000 nM on Mu-type opioid receptor, 1.8 nM in assay [1] and 430 nM in assay [2].

As for `CC(C)C[C@H](NC(=O)[C@H](Cc1ccccc1)NC(=O)CNC(=O)[C@@H](CO)NC(=O)[C@@H](N)Cc1ccc(O)cc1)C(=O)N[C@H](C(=O)O)[C@@H](C)O`, the figures for the 50% inhibitory concentration (IC50) (at Mu-type opioid receptor; in assay [1]; in assay [2]) were 73 nM, 600 nM and 1040 nM, respectively.

In the case of `CN(C(=O)Cc1ccc(N=C=S)cc1)[C@H](CN1CCCC1)c1ccccc1` [listing 2 of 2 here], the IC50 in assay [2] was determined as 53 nM.

Regarding `CN(C(=O)Cc1ccccc1)[C@H](CN1CCCC1)c1ccccc1`, the IC50 at Mu-type opioid receptor is over 1000 nM; in assay [1] it was 1.4 nM; in assay [2] it was 63 nM.

Regarding `CN(C(=O)Cc1cc(Cl)c(Cl)cc1N=C=S)[C@H](CN1CCCC1)c1ccccc1` [listing 2 of 2 here], the values for the half-inhibitory concentration (IC50) (at Mu-type opioid receptor; in assay [1]) were 1250 nM and 9.5 nM, respectively.
